Measured values from PMC6408514.

By UniProt entry, the sequences of proteins in these tests, tags left out. Residues count along the entry.
UniProt P02786, 121-760: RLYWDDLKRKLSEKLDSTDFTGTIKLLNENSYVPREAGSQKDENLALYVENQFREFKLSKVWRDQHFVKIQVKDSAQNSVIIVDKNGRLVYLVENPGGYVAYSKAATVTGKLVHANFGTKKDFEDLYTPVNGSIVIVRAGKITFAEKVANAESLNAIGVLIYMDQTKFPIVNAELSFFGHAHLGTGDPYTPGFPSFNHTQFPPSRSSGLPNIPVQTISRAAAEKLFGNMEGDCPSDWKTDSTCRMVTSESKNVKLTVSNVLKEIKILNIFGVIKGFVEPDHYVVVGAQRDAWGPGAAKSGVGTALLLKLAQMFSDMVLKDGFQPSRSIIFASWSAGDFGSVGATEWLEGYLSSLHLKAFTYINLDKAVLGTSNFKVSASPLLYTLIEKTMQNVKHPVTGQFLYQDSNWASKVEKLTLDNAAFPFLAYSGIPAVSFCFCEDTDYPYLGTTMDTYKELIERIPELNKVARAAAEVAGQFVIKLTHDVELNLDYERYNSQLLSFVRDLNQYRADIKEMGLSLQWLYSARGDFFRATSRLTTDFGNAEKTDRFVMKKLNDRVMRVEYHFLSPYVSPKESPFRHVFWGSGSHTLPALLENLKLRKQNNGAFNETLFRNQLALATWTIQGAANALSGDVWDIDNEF

Biological target: human transferrin receptor 1 (CD71) ectodomain, residues 121-760, octa-histidine tagged (human) (UniProt P02786)
Assay: SPR; Biacore X100; His-tagged CD71 immobilised on an NTA sensor chip (22 µg/mL, 60 s), ferritins as analytes 1000-62.5 µg/mL (multi-kinetic mode), 25 °C, 30 µL/min, 10 mM PBS pH 7.4; fitted with a heterogeneous analyte model (Supplementary Table 4) or a 1:1 model (Supplementary Table 5)

Row | Substance | Kd | koff | kon
1 | human H-chain ferritin mutant A (Q14A/D15A/R22A) (natural protein) | 140 nM | 0.0018 s⁻¹ | 170000 M⁻¹ s⁻¹
2 | human H-chain ferritin mutant C (Q14A/D15A/R22A/F81A/Q83A) (natural protein) | 1300 nM | 0.00155 s⁻¹ | 1200 M⁻¹ s⁻¹
3 | human H-chain ferritin mutant B (F81A/Q83A) (natural protein) | 130 nM | 0.0089 s⁻¹ | 66000 M⁻¹ s⁻¹
